Source: patent US20110076693A1 (US Dept. of Health and Human Services, published 2011)

Biological target: T1, Polo-Like Kinase 1 (Plk1), endogenous, from HeLa lysates (H. sapiens)
T1 construct: also called endogenous Plk1
Assay: pulldown from mitotic HeLa lysates with bead-bound GST, anti-Plk1 immunoblot

- binding result: no binding
B1: control glutathione S-transferase (GST) (other, UniProt P08515 1-218, looked up)
chain: MSPILGYWKIKGLVQPTRLLLEYLEEKYEEHLYERDEGDKWRNKKFELGLEFPNLPYYIDGDVKLTQSMAIIRYIADKHNMLGGCPKERAEISMLEGAVLDIRYGVSRIAYSKDFETLKVDFLSKLPEMLKMFEDRLCHKTYLNGDHVTHPDFMLYDALDVVLYMDPMCLDAFPKLVCFKKRIEAIPQIDKYLKSSKYIAWPLQGWQATFGGGDHPPK
notes: Negative control of the pulldowns; also called control GST
